Assay results as given in patent US20190218531A1 (priority 2018, published 2019).
Only a part of the results on these compounds is given; other tests are left out.

Columns and labels:
S. elongatus CscB+ cells = test: Toxicity of 2,4-DNT to planktonic (non-encapsulated) S. elongatus CscB+ cultures
Excerpt: FIG. 13A-13K illustrates that encapsulated S. elongatus CscB+ cells are more tolerant of the toxin dinitrotoluene (DNT) than non-encapsulated S. elongatus CscB+ cells and that co-cultures of these two species can degrade DNT (e.g., 2,4-DNT). FIG. 13A graphically illustrates the growth of non-encapsulated S. elongatus CscB+ cells at different levels of 2.4-DNT when grown in suspension as measured by absorption (OD750). As illustrated, low concentrations of DNT slow the growth rate of the S. elongatus CscB+ cells. FIG. 13B graphically illustrates the viability of non-encapsulated S. elongatus CscB+ cells at different levels of DNT when grown in suspension as measured by extracted chlorophyll a concentrations (Chla μg/ml). As illustrated, concentrations of DNT greater than 0.03 mM led to chlorosis of S. elongatus CscB+ cells, as measured by extracted chlorophyll a. FIG. 13C illustrates encapsulation of S. elongatus CscB+ cells in alginate hydrogel beads. S. elongatus CscB+ cells are viable inside these hydrogels for long time periods (e.g., more than 5 months, see, e.g., FIG. 10). FIG. 13D graphically illustrates that Ba-alginate encapsulated S. elongatus CscB+ cells are resistant to much higher concentrations of 2,4-DNT (at least 0.25 mM) than non-encapsulated S. elongatus CscB+ cells (about 0.03 mM), as evaluated by chlorophyll extraction from beads after 7 days of 2,4-DNT exposure (compare to FIG. 13B). […] FIG. 13F illustrates an example of a dnt expression cassette, referred to as pSEVA221-cscRABY. FIG. 13G illustrates the enzymes and products in the Dnt-mediated dinitrotoluene breakdown pathway. FIG. 13H graphically illustrates degradation of 2,4-DNT by engineered P. putida strains bearing the heterologous pathway (P. putida-EM-DNT-S) shown in FIGS. 13F and 13G. […]
Preliminary toxicity assays of planktonic (i.e., free-floating) cultures of S. elongatus cyanobacteria were monitored in the presence of increasing 2.4-DNT.

[1] = system: encapsulated S. elongatus CscB+ cells; test: 2,4-DNT exposure of Ba-alginate encapsulated S. elongatus CscB+ cells
Excerpt: FIG. 13A-13K illustrates that encapsulated S. elongatus CscB+ cells are more tolerant of the toxin dinitrotoluene (DNT) than non-encapsulated S. elongatus CscB+ cells and that co-cultures of these two species can degrade DNT (e.g., 2,4-DNT). FIG. 13A graphically illustrates the growth of non-encapsulated S. elongatus CscB+ cells at different levels of 2.4-DNT when grown in suspension as measured by absorption (OD750). As illustrated, low concentrations of DNT slow the growth rate of the S. elongatus CscB+ cells. FIG. 13B graphically illustrates the viability of non-encapsulated S. elongatus CscB+ cells at different levels of DNT when grown in suspension as measured by extracted chlorophyll a concentrations (Chla μg/ml). As illustrated, concentrations of DNT greater than 0.03 mM led to chlorosis of S. elongatus CscB+ cells, as measured by extracted chlorophyll a. FIG. 13C illustrates encapsulation of S. elongatus CscB+ cells in alginate hydrogel beads. […] FIG. 13D graphically illustrates that Ba-alginate encapsulated S. elongatus CscB+ cells are resistant to much higher concentrations of 2,4-DNT (at least 0.25 mM) than non-encapsulated S. elongatus CscB+ cells (about 0.03 mM), as evaluated by chlorophyll extraction from beads after 7 days of 2,4-DNT exposure (compare to FIG. 13B). […]

Cc1ccc([N+](=O)[O-])cc1[N+](=O)[O-]
2,4-DNT concentration to which cells are resistant (S. elongatus CscB+ cells; non-encapsulated cells, chlorophyll, compare FIG. 13B): about 0.03 mM | 2,4-DNT concentration at which cells exhibited bleaching phenotypes indicative of severe stress and/or cell death (S. elongatus CscB+ cells; planktonic cells, extracted chlorophyll a, FIG. 13B): higher than 0.03 mM | 2,4-DNT concentration at which growth of S. elongatus was severely inhibited (S. elongatus CscB+ cells; planktonic, exponentially growing cells, OD750, FIG. 13A): > 0.008 mM | 2,4-DNT concentration to which cells are resistant ([1]; Ba-alginate encapsulated, chlorophyll extraction from beads after 7 days of exposure, FIG. 13D): at least 0.25 mM | sucrose export of encapsulated cells exposed to 2,4-DNT relative to unexposed encapsulated control ([1]; measured over 24 hours, FIG. 13E): comparable rates
